# Binding of CDR-mutated scFvs to a peptide of the spike HR2 region

Target peptide (SARS-CoV-2 spike, HR2 region): PDVDLGDISGINAS

Ab-95 is the parent antibody, in scFv form: VH, then a (GGGGS)3 linker, then VL. The heavy chain is unchanged in all variants.
VH: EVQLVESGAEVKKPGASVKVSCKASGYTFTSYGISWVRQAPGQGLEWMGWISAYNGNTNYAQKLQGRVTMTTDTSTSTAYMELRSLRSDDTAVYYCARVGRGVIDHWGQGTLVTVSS
VL: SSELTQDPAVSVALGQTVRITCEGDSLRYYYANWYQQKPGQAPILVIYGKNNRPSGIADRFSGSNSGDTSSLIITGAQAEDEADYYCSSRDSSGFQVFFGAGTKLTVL

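Phage display of a naive human antibody library on the peptide gave the parent. Library AAYL52 holds single substitutions and randomly drawn double and triple substitutions in the CDRs. The scFvs were displayed on barcoded MATa yeast, the peptide on MATalpha yeast. Pairs that bind mate more often; barcode pairs of the diploids are counted by sequencing. Read counts were normalised to the haploid input and turned into Kd by a linear fit to BCL2-family pairs of known affinity, for each replicate. Each pool was mated in three replicate cultures.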

Substitutions are numbered in sequence along the VL above, starting at 1 (not Kabat).
Values are log10 of the apparent Kd in nM; lower means stronger binding.
Replicates are averaged; those with no signal do not enter the mean.
"nd" means that the variant was in the library but no mating with the target was seen in any replicate; the authors take this as a sign of poor binding, and no number exists.

Read-out 5.22 (2 of 3 replicates), from G49P/D91R/F95W.
Read-out 4.14 (2 of 3 replicates), from P54W/S55A/S89D.
Read-out 3.70 (1 of 3 replicates), from N33L/S93K/F95Y.
Read-out 4.66 (2 of 3 replicates), from G49F/S88G/S89W.
Read-out 4.45 (3 of 3 replicates), from G24M/P54E/Q96S.
Read-out 3.27 (3 of 3 replicates), from S88C/S92D/F98E.
Read-out 1.58 (3 of 3 replicates), from Y31E/K50H/N52W.
Read-out 2.51 (2 of 3 replicates), from E23L/Y29G/S55C.
Read-out nd (0 of 3 replicates), from R28A/P54W/S92H.
Read-out nd (0 of 3 replicates), from S26P/L27H/G49E.
Read-out 3.89 (1 of 3 replicates), from G24Q/Y29R/S88D.
Read-out 2.03 (3 of 3 replicates), from S26G/S88Y.
Read-out 3.11 (3 of 3 replicates), from S55H/R90P/F98G.
Read-out 1.93 (3 of 3 replicates), from E23A/N51E/S55Q.
Read-out 3.16 (3 of 3 replicates), from S88N/F95I/V97E.
Read-out 2.97 (3 of 3 replicates), from N51Q/P54A/Q96S.
Read-out 3.21 (3 of 3 replicates), from Y29P/Y30H/N51R.
Read-out nd (0 of 3 replicates), from A32W/R53Q/G94D.
Read-out nd (0 of 3 replicates), from E23P/R90T/Q96K.
Read-out 4.03 (2 of 3 replicates), from S88L/S92A/S93D.
Read-out 4.51 (1 of 3 replicates), from K50I/S93F/G94E.
Read-out 4.10 (3 of 3 replicates), from G24F/G49L/R53T.
Read-out 2.85 (3 of 3 replicates), from N52T/S93E/F95G.
Read-out 3.65 (1 of 3 replicates), from Y31I/R90E/S92F.
Read-out 1.80 (3 of 3 replicates), from S26I/L27G/Y30Q.
Read-out 3.66 (1 of 3 replicates), from N51T/S89N/F98W.
Read-out 4.64 (1 of 3 replicates), from S26Y/A32K/Q96V.
Read-out 3.52 (1 of 3 replicates), from S26L/S88I.
Read-out 4.57 (1 of 3 replicates), from Y30L/S88G/R90M.
Read-out 3.73 (1 of 3 replicates), from G49E/N51C/S92G.
Read-out 4.27 (1 of 3 replicates), from Y29G/D91W.
Read-out 2.92 (3 of 3 replicates), from R90E/F95M.
Read-out 4.13 (2 of 3 replicates), from N33T/N52C/G94T.
Read-out 2.32 (3 of 3 replicates), from E23V/Q96I/F98S.
Read-out 2.77 (3 of 3 replicates), from Y30V/P54K/S88M.
Read-out 4.85 (2 of 3 replicates), from E23I/N33K/N52G.
Read-out 3.60 (2 of 3 replicates), from R28Q/Y29E/P54C.
Read-out 3.34 (3 of 3 replicates), from Y29E/S89M/F95C.
Read-out 3.61 (2 of 3 replicates), from N52W/S55Y/R90H.
Read-out 3.00 (3 of 3 replicates), from Y31N/N33Y/P54R.

Excerpt, the final 4 entries:

changes,"log10 Kd (nM), mean",replicates with signal
R28Q/Y29E/P54C,3.60,2/3
Y29E/S89M/F95C,3.34,3/3
N52W/S55Y/R90H,3.61,2/3
Y31N/N33Y/P54R,3.00,3/3

Nonspecific signal, from three strains lacking the peptide, appeared in 28% of pairings of library AAYL52, centred on 3.91 (5% of these signals below 2.90); values are not corrected for it.
In this assay the parent's reference entry averaged 2.31; its copy inside this library read 2.25.

From the AlphaSeq antibody data of Engelhart et al. 2022 (doi:10.1038/s41597-022-01779-4), copy in the FLAb collection.